Laboratory results reported in US8912213B2, “Synthesis and use of dual tyrosyl-DNA phosphodiesterase I (TDP1)- topoisomerase I (TOP1) inhibitors” (Purdue Research Foundation, priority 2012, dated 2014).

Chains of the proteins cited; added tags and fusions are not shown.
UniProt Q9NUW8, whole entry: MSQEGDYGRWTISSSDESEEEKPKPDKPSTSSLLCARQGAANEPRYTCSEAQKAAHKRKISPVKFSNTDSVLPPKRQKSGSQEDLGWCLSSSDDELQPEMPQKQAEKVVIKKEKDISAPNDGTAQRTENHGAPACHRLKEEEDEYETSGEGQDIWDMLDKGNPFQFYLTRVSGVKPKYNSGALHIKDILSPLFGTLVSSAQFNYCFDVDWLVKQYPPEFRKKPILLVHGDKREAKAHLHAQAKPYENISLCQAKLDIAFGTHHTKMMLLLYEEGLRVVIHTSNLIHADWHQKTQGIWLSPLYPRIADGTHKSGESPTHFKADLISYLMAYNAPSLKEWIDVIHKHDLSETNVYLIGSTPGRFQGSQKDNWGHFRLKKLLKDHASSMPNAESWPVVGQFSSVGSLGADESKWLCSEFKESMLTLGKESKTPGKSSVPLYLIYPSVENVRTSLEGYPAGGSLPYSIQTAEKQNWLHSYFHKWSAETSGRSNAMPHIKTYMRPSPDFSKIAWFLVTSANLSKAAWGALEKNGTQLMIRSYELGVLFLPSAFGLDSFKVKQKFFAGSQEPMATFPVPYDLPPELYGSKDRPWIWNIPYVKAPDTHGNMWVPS

Columns and labels:
Tdp1 [1] = target: T1, Tdp1 (Homo sapiens (Human), UniProt Q9NUW8); assay: Gel-based assay measuring the inhibition of recombinant Tdp1; type: biochemical;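 further: 5′-32P-labeled single-stranded DNA with 3′-phosphotyrosine incubated with 5 pM enzyme for 15 min at room temperature, inhibition seen as loss of 3′-phosphate product band by densitometry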
HOP-62 = assay: cells; conditions: Homo sapiens, HOP-62, read-out: Cytotoxicity (GI50 in μM) lung HOP-62
UACC-62 = assay: cells; conditions: Homo sapiens, UACC-62, read-out: Cytotoxicity (GI50 in μM) melanoma UACC-62
Tdp1 [2] = target: T1, Tdp1; assay: FRET assay, mechanism of inhibition; type: biochemical; conditions: competitive inhibitor

| SMILES | IC50 (Tdp1 [1]) [µM] | further results |
| --- | --- | --- |
| CC(=O)Nc1ccc2c3c(n(CCCN)c(=O)c2c1)-c1ccccc1C3O (centres unmarked) [Compound 61 of (B)] | > 111 | Tdp1 inhibitory activity (in words) (Tdp1 [1]): not active |
| COc1ccc2c(c1)-c1c(c3ccc([N+](=O)[O-])cc3c(=O)n1CCCN)C2=O.Cl [Compound 51 of (B), 6-(3-Aminopropyl)-5,6-dihydro-8-methoxy-3-nitro-5,11-dioxo-11H-indeno[1,2-c]isoquinoline Hydrochloride] |  | GI50 (HOP-62): 0.14 µM; GI50 (UACC-62): 0.14 µM |
| NCCCn1c2c(c3ccc([N+](=O)[O-])cc3c1=O)C(=O)c1ccccc1-2 [Compound 60 of (B)] | > 37 |  |
| CNc1ccc2c3c(n(CCCN)c(=O)c2c1)-c1ccccc1C3=O [Compound 59 of (B)] | 37 to 111 |  |
| Cl.NCCCn1c2c(c3ccccc3c1=O)C(=O)c1ccccc1-2 [Compound 70 of (A)] |  | Ki (Tdp1 [2]): 3.19 µM |
| CC(=O)Nc1ccc2c3c(n(CCCN=[N+]=[N-])c(=O)c2c1)-c1ccccc1C3=O [Compound 56 of (B)] | > 111 |  |
